Reference: PubChem BioAssay (NCI)
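A five-concentration, 48-hour dose response in 96-well plates underlies each endpoint, interpolated linearly between surrounding concentrations. At the GI50, growth is halved. The concentration for full growth arrest is given as TGI.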

How the values were obtained:
Test in all cases: NCI anticancer screen, dose series, 48 h
HS 578T breast = system: HS 578T breast
786-0 renal = system: 786-0 renal
SR leukemia = system: SR leukemia
MCF7 breast = system: MCF7 breast
M14 melanoma = system: M14 melanoma
HCT-116 colon = system: HCT-116 colon
CAKI-1 renal = system: CAKI-1 renal
SF-295 CNS = system: SF-295 CNS
A498 renal = system: A498 renal
EKVX NSCLC = system: EKVX NSCLC
UACC-62 melanoma = system: UACC-62 melanoma
RXF 393 renal = system: RXF 393 renal
HCT-15 colon = system: HCT-15 colon
COLO 205 colon = system: COLO 205 colon
SK-OV-3 ovarian = system: SK-OV-3 ovarian
DU-145 prostate = system: DU-145 prostate
NCI-H522 lung = system: NCI-H522 lung
SNB-19 CNS = system: SNB-19 CNS
SF-539 CNS = system: SF-539 CNS
U251 CNS = system: U251 CNS
SK-MEL-28 melanoma = system: SK-MEL-28 melanoma
MALME-3M melanoma = system: MALME-3M melanoma
HOP-62 NSCLC = system: HOP-62 NSCLC
MOLT-4 leukemia = system: MOLT-4 leukemia
RPMI-8226 leukemia = system: RPMI-8226 leukemia
OVCAR-4 ovarian = system: OVCAR-4 ovarian
SK-MEL-5 melanoma = system: SK-MEL-5 melanoma
NCI/ADR-RES ovarian = system: NCI/ADR-RES ovarian

Compound: O=c1[nH]c2cc([N+](=O)[O-])c(N/N=C/C=C/c3ccc([N+](=O)[O-])o3)c([N+](=O)[O-])c2[nH]1
- GI50 (HS 578T breast): 21.5 µM
- TGI (HS 578T breast): 83.2 µM
- GI50 (786-0 renal): 11.5 µM
- TGI (786-0 renal): 41 µM
- GI50 (SR leukemia): 4.03 µM
- TGI (SR leukemia): 18 µM
- GI50 (MCF7 breast): 3.29 µM
- TGI (MCF7 breast): 15.1 µM
- GI50 (M14 melanoma): 8.18 µM
- TGI (M14 melanoma): > 100 µM
- GI50 (HCT-116 colon): 8.93 µM
- TGI (HCT-116 colon): 31.6 µM
- GI50 (CAKI-1 renal): 17.2 µM
- TGI (CAKI-1 renal): 36.8 µM
- GI50 (SF-295 CNS): 18.4 µM
- TGI (SF-295 CNS): > 100 µM
- GI50 (A498 renal): 7.02 µM
- TGI (A498 renal): 23.4 µM
- GI50 (EKVX NSCLC): 59 µM
- TGI (EKVX NSCLC): > 100 µM
- GI50 (UACC-62 melanoma): 5.61 µM
- TGI (UACC-62 melanoma): 21.3 µM
- GI50 (RXF 393 renal): 5.73 µM
- TGI (RXF 393 renal): 20.1 µM
- GI50 (HCT-15 colon): 10.1 µM
- TGI (HCT-15 colon): > 100 µM
- GI50 (COLO 205 colon): 2.76 µM
- TGI (COLO 205 colon): 13.3 µM
- GI50 (SK-OV-3 ovarian): 23.6 µM
- TGI (SK-OV-3 ovarian): 61.8 µM
- GI50 (DU-145 prostate): 5.64 µM
- TGI (DU-145 prostate): 18.1 µM
- GI50 (NCI-H522 lung): 6.9 µM
- TGI (NCI-H522 lung): > 100 µM
- GI50 (SNB-19 CNS): 14.7 µM
- TGI (SNB-19 CNS): 80.1 µM
- GI50 (SF-539 CNS): 0.0252 µM
- TGI (SF-539 CNS): 2.39 µM
- GI50 (U251 CNS): 9.95 µM
- TGI (U251 CNS): 33.8 µM
- GI50 (SK-MEL-28 melanoma): 8.47 µM
- TGI (SK-MEL-28 melanoma): 35.8 µM
- GI50 (MALME-3M melanoma): 8.86 µM
- TGI (MALME-3M melanoma): 39 µM
- GI50 (HOP-62 NSCLC): 10.8 µM
- TGI (HOP-62 NSCLC): 23.8 µM
- GI50 (MOLT-4 leukemia): 6.97 µM
- TGI (MOLT-4 leukemia): 70.2 µM
- GI50 (RPMI-8226 leukemia): 13.9 µM
- TGI (RPMI-8226 leukemia): > 100 µM
- GI50 (OVCAR-4 ovarian): 16.9 µM
- TGI (OVCAR-4 ovarian): 36.1 µM
- GI50 (SK-MEL-5 melanoma): 3.36 µM
- TGI (SK-MEL-5 melanoma): 10.9 µM
- GI50 (NCI/ADR-RES ovarian): > 100 µM
- TGI (NCI/ADR-RES ovarian): > 100 µM
